Source: PubChem BioAssay AID624351 (Southern Research Specialized Biocontainment Screening …, 2012)
This is a selection; strong and weak results do not stand in their true shares. Calls of active or inactive are those of the source.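 Rule for the calls: active = inhibition of 30% or more at any tested dose; inconclusive = primary hits over the limit that were never retested; inactive = the rest.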

assay: ADP Hunter readout inhibition without MgcRacGAP – biochemical, coupled enzyme counter-screen, artefact control for MgcRacGAP inhibitor project, dose response (AID 624351); conditions: fluorescence, no MgcRacGAP; at 80 µM (top of the series);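 note: signal is the ADP detection kit reading of free GDP without any GAP enzyme; 0% = median positive control wells and 100% = median negative control wells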

SMILES	inhibition
CCCCCCCCCCCCCCCC1C[N+](C)(C)CCOP(C)(=O)O1 (stereo unspecified)	inactive: 3.47%
